These results are taken from patent US20110093964A1.

For test [1], the target named is MLCKp peptide, 17 residues, derived from the calmodulin-binding domain of a rabbit muscle myosin light chain kinase (CALBIOCHEM) (rabbit). Kind of test: tryptophan fluorescence of 5 uM MLCKp (excitation 280 nm) in 10 mM MES pH 6.5, one equivalent of calmodulin, no metals.
Test [2] shares this target. Kind of test: tryptophan fluorescence of 5 uM MLCKp with one equivalent of calmodulin after adding 10 equivalents of calcium; maximum stays at 330 nm.
Test [3] shares this target. Kind of test: tryptophan fluorescence of 5 uM MLCKp (excitation 280 nm) in 10 mM MES pH 6.5, one equivalent of calmodulin, no metals; free peptide emits at 350 nm.

On to “native bovine brain calmodulin (from UniProt P62157 2-149)”, for which the increase in tryptophan fluorescence intensity in test [1] came out at 25%; in test [2] it was 20%. Moreover, the maximum of tryptophan fluorescence emission in test [3] turned out to be 330 nm.
